This is an account of results in publication PMC7503225, “Repositioning Dequalinium as Potent Muscarinic Allosteric Ligand by Combining Virtual Screening Campaigns and Experimental Binding Assays” (International Journal of Molecular Sciences, 2020).

Sequences of proteins named here, by UniProt entry; tags and fusion partners are left off.
UniProt P08172, whole entry: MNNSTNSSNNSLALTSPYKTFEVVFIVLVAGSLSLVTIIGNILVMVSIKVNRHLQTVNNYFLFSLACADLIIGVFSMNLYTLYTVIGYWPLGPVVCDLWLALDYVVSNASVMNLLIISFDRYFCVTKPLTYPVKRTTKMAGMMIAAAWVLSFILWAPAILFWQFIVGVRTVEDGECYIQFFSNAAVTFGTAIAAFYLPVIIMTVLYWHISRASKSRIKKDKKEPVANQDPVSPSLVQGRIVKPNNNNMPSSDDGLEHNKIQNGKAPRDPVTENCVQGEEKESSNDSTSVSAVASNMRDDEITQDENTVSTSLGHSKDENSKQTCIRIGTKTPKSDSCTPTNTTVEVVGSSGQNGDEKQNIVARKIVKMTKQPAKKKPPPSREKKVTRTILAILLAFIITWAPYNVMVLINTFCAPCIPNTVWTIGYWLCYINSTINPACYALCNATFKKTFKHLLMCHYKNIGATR

In one test the target is T1, hM2 muscarinic receptor (Homo sapiens, UniProt P08172).
T1 construct: expressed in transfected cells; host or cells: CHO cells, stably transfected; membrane fractions
The test can be described thus: Equilibrium inhibition binding with [3H]-NMS, CHO cell membranes.

Test [1] deals with T2, [3H]-NMS-occupied muscarinic hM2 subtype (Homo sapiens, UniProt P08172).
T2 construct: expressed in transfected cells; host or cells: CHO cells, stably transfected; membrane fractions
The test can be described thus: One point kinetic (off-rate) assay of [3H]-NMS dissociation. The format is binding. Conditions: for Kd: read-out: Log Kocc hM2 (converted).

The target of test [2] is five human muscarinic receptors subtypes (hM1–hM5). The test can be described thus: Equilibrium binding, summary statements over the five subtypes.

One may read the Ki as a dissociation constant, usually derived from enzyme kinetics or from competition with a known ligand. Read a low Ki as higher affinity. For the compound `[H]/N=C(\N/C(=N/[H])NCCCCCCNC(=N)NC(=N)Nc1ccc(Cl)cc1)Nc1ccc(Cl)cc1` [chlorhexidine], the Ki on hM2 muscarinic receptor is 3.8 µM. Besides, in test [1] (from log Kocc values), the “selectivity ratio hM2/hM1” value was 14 and the “selectivity ratio hM2/hM5” value came to 32.4. The Kd in test [1] was 5.75 µM.

On to `C[n+]1ccc(-c2cc[n+](C)cc2)cc1` [paraquat], for which the “pKi values (muscarinic subtypes overall)” value in test [2] was “below 5”.

On to `CC(=O)N1CCN(c2ccc(OCC3COC(Cn4ccnc4)(c4ccc(Cl)cc4Cl)O3)cc2)CC1` (stereo not drawn) [ketoconazole], for which, in test [1], the Kd is 61.7 µM.
